Laboratory results from article PMC11522906, “Pyrimidine Azepine Targets the Plasmodium bc1 Complex and Displays Multistage Antimalarial Activity” (JACS Au, 2024).

Sequences of proteins named here, by UniProt entry; tags and fusion partners are left off. A change or cut given only in a name is not applied to a line headed by its entry.
UniProt Q02768: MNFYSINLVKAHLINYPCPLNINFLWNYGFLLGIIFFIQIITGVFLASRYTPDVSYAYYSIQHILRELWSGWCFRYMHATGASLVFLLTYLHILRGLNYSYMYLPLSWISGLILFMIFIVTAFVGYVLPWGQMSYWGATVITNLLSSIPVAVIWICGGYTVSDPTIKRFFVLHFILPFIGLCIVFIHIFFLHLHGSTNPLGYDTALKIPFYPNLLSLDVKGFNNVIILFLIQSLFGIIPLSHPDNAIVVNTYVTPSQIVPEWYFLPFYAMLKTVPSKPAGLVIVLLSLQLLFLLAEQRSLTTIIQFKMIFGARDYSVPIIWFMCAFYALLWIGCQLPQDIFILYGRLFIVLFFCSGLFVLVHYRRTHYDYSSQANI

Molecular target: T1, cytochrome b (Pfbc1 complex) (Plasmodium falciparum, UniProt Q02768)
T1 construct: gene MT-CYB; native bc1 complex in DDM-treated mitochondrial fraction from P. falciparum Dd2_R539T; with other subunits of the cytochrome bc1 complex
Assay: bc1 activity in extracted parasite mitochondria (decylubiquinol-driven cytochrome c reduction)
Assay type: biochemical

`O=C1C(O)=C([C@H]2CC[C@H](c3ccc(Cl)cc3)CC2)C(=O)c2ccccc21` [ATQ, atovaquone] gave an EC50 of 16.3 nM.
